Test results as given in patent US10730863B2, “Bridged bicyclic compounds as farnesoid X receptor modulators” (BRISTOL-MYERS SQUIBB COMPANY, priority 2017, dated 2020).

The chains behind the UniProt entries cited, without tags or fusion partners. Residues count along the entry.
UniProt Q96RI1, 262-486 limits assumed: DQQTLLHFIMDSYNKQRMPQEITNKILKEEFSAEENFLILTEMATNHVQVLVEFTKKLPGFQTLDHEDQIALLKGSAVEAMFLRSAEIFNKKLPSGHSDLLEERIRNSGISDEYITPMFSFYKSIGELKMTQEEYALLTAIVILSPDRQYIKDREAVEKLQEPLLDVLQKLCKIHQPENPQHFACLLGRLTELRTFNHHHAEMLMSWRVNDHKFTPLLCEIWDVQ

What follows are compounds tested against FXR (Homo sapiens (Human), UniProt Q96RI1) (assay: FXR EC50 (FXR agonist activity reported with each example)). Conditions: read-out: FXR EC50.
Assay type: cell-based
`O=C(O)c1ccc(-c2noc(C34CCC(COCc5c(-c6c(Cl)cccc6Cl)noc5C5CC5)(CC3)C4)n2)cc1` was tested, and the EC50 was 2000 nM.
In the case of `O=C(O)c1cccc(-c2noc(C34CCC(COCc5c(-c6c(Cl)cccc6Cl)noc5C5CC5)(CC3)C4)n2)c1`, the EC50 is reported as 310 nM.
`O=C(O)c1ccc(-c2noc(C34CCC(OCc5c(-c6c(Cl)cccc6Cl)noc5C5CC5)(CC3)C4)n2)cc1` showed an EC50 of 710 nM.
`O=C(O)c1cccc(-c2noc(C34CCC(C=Cc5c(-c6c(Cl)cccc6Cl)noc5C5CC5)(CC3)C4)n2)c1` showed an EC50 of 5100 nM.
`O=C(O)c1cccc(/C=C/C23CCC(OCc4c(-c5ccccc5C(F)(F)F)noc4C4CC4)(CC2)CC3)c1` showed an EC50 of 470 nM.
